{
  "sequences": {"note": "The chains behind the UniProt entries cited, without tags or fusion partners.", "UniProt P30542, whole entry": "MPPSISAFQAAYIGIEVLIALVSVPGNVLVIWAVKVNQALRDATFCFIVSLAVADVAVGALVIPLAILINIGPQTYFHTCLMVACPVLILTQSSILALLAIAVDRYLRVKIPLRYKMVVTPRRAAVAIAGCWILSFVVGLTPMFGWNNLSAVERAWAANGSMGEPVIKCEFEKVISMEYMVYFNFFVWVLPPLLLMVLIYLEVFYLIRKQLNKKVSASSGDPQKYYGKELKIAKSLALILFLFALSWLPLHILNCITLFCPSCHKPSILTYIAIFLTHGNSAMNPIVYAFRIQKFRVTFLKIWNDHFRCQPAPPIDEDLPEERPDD"},
  "source": "patent US7504407B2",
  "about": "“Compounds specific to adenosine A1 and A3 receptors and uses thereof” (OSI Pharmaceuticals, Inc., priority 2001, dated 2009)",
  "target": "human A1 adenosine receptor (Homo sapiens, UniProt P30542)",
  "assay": "Fus1-LacZ β-galactosidase assay in yeast expressing human A1 adenosine receptor",
  "conditions": "NECA concentration of 10^−8 M",
  "data": [
    {"molecule": "CCNC(=O)[C@H]1O[C@@H](n2cnc3c(N)ncnc32)[C@H](O)[C@@H]1O", "values": [
      {"measurement": "stimulation of β-galactosidase activity", "result": "approximately 2 fold"}
    ]}
  ]
}
